Among the data in ChEMBL document CHEMBL4190249, “Antiproliferative and apoptotic activities of sequence-specific histone acetyltransferase inhibitors” (Eur J Med Chem, 2017) are INH values, retold here.

Sequences of proteins named here, by UniProt entry; tags and fusion partners are left off.
UniProt Q09472, whole entry: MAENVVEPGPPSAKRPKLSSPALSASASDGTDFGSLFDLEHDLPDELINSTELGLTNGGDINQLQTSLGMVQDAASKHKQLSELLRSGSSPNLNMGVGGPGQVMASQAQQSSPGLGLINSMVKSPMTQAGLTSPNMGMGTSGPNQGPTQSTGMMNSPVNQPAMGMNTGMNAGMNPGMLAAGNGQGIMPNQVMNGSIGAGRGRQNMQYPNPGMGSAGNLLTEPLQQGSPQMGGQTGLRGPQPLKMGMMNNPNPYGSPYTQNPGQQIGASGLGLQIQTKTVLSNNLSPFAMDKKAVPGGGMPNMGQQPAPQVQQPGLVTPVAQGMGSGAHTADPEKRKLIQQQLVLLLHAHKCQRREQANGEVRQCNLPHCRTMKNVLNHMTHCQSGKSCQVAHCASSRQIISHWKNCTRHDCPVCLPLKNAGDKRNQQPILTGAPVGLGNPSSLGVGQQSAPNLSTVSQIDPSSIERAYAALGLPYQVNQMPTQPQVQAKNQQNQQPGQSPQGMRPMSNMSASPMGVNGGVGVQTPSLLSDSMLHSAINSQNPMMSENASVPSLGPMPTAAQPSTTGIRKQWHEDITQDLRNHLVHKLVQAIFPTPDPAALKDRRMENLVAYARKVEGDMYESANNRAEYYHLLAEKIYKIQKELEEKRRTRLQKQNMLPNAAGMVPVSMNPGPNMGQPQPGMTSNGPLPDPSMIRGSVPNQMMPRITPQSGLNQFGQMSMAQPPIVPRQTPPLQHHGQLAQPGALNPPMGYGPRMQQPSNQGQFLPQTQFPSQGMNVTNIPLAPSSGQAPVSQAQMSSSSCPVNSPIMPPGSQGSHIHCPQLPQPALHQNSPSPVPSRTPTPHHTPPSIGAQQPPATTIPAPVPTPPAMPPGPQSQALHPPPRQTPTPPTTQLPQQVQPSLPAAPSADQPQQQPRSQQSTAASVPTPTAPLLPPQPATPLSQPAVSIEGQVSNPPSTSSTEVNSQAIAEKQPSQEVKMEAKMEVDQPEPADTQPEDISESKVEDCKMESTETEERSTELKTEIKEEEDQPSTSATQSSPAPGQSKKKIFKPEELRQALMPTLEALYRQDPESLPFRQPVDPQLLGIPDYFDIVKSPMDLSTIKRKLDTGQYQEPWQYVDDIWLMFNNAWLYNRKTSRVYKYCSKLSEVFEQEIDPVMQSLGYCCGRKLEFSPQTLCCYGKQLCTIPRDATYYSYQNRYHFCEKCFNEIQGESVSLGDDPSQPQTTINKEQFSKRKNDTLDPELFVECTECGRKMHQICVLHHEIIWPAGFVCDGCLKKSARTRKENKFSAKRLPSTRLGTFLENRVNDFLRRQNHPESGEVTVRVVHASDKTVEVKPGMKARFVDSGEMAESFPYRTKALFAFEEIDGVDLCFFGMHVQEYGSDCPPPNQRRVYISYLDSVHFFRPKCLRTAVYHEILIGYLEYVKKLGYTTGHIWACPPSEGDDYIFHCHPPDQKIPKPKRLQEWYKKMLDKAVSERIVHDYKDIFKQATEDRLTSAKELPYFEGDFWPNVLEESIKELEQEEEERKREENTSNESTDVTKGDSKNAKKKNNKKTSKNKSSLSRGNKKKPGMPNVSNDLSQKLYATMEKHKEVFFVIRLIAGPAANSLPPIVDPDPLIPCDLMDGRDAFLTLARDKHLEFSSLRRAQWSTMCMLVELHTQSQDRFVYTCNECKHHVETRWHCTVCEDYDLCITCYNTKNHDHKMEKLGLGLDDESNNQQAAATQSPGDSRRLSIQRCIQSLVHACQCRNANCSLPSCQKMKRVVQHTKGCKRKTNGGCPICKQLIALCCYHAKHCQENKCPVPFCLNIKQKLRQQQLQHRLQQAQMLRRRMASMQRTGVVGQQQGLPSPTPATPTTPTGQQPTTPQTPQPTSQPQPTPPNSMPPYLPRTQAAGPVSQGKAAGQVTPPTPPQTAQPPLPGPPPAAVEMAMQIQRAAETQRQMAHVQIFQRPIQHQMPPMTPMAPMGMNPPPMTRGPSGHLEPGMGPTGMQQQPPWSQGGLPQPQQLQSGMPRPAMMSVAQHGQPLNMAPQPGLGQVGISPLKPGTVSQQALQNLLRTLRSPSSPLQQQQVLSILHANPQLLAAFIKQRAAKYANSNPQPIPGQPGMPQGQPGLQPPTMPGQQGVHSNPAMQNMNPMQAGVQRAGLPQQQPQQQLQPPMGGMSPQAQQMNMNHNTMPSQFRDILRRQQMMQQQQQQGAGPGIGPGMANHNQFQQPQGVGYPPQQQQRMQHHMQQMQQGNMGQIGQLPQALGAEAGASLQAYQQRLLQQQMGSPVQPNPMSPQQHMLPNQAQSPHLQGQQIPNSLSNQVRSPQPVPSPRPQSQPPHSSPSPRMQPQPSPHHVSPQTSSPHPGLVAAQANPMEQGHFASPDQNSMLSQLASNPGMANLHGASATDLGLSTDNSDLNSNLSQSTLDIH

The target of this experiment is Histone acetyltransferase p300 (Homo sapiens, UniProt Q09472). The experiment can be described thus: Inhibition of p300 (unknown origin).

Take `CCCCCCCCCCCCCCCc1cccc(O)c1C(=O)O`: the INH amounted to 8.5 µM.
